# Curated experimental data: water solubility values

Values as listed in the OPERA 2.9 repository of K. Mansouri.

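These are experimental values that the OPERA curators gathered from public databases to train and test their QSAR models. One number stands for a compound and property, with no spread given. Method, purity and exact conditions of the single measurements are not given. The measured form (salt, isomer or mixture) is not always the one drawn. Unmarked limits or estimates from the upstream databases cannot be ruled out.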

Water solubility is log10 of mol/L, nominally at 25 °C; higher is more soluble.

{"smiles": "CCCCC[C@H](O)/C=C/[C@@H]1[C@@H](C/C=C\\CCCC(=O)O)[C@@H](O)C[C@H]1O", "name": "Dinoprost", "log S (log10 mol/L)": "-5.14"}
{"smiles": "C=CCOP(=O)(OCC=C)c1ccccc1", "name": "Diprop-2-en-1-yl phenylphosphonate", "log S (log10 mol/L)": "-2.9"}
{"smiles": "CC(C)[C@H](N)C(=O)OCC(CO)OCn1cnc2c(=O)nc(N)[nH]c21", "stereo": "stereo not given in full", "name": "Valganciclovir", "log S (log10 mol/L)": "-1.869"}
{"smiles": "CN=C(O)O/N=C/c1ccc(Cl)cc1", "name": "4-CL BENZALDEHYDE,O-((MEAM)CO)OXIME", "log S (log10 mol/L)": "-2.69"}
{"smiles": "CC(C)OC(=O)CCC(=O)OC(C)C", "name": "Dipropan-2-yl butanedioate", "log S (log10 mol/L)": "-1.729"}
{"smiles": "NC(=O)Nc1ccccc1", "name": "1-Phenylurea", "log S (log10 mol/L)": "-0.898"}
{"smiles": "Cc1cc(-c2cc(C)c(N)cc2S(=O)(=O)O)c(S(=O)(=O)O)cc1N", "log S (log10 mol/L)": "-2.217"}
{"smiles": "Cc1ncc(COP(=O)(O)O)c(C=O)c1O", "name": "Pyridoxal phosphate", "log S (log10 mol/L)": "-0.946"}
{"smiles": "CCCCCCCCCC(=O)N(C)C", "name": "N,N-Dimethyldecanamide", "log S (log10 mol/L)": "-2.759"}
{"smiles": "CN(Cc1cc(Br)cc(Br)c1N)C1CCCCC1.Cl", "name": "Bromhexine hydrochloride", "log S (log10 mol/L)": "-5.01"}
{"smiles": "CCC(O)(CC)C(O)CC(C)C", "stereo": "stereo unspecified", "name": "3-ethyl-6-methylheptane-3,4-diol", "log S (log10 mol/L)": "-1.598"}
{"smiles": "CC1=CCC(=O)O1", "name": "alpha-Angelica lactone", "log S (log10 mol/L)": "-0.293"}
{"smiles": "CC(C)CN(CC(C)C)C(=O)COC(=O)c1ccccc1", "name": "2-(Diisobutylamino)-2-oxoethyl benzoate", "log S (log10 mol/L)": "-3.56"}
{"smiles": "CSc1nc2cc(Cl)c(Oc3cccc(Cl)c3Cl)cc2[nH]1", "name": "Triclabendazole", "log S (log10 mol/L)": "-5.561"}
{"smiles": "CCC(C)(C(=O)O)N1C(=O)c2ccccc2C1=O", "stereo": "stereo unspecified", "log S (log10 mol/L)": "-1.916"}
{"smiles": "NS(=O)(=O)c1cc2c(s1)CC(O)CS2(=O)=O", "stereo": "stereo unspecified", "log S (log10 mol/L)": "-1.589"}
{"smiles": "O=Cc1c(O)ccc2ccccc12", "name": "1-Naphthalenecarboxaldehyde, 2-hydroxy-", "log S (log10 mol/L)": "-3.894"}
{"smiles": "CC1=NN(c2ccccc2)C(=O)CC1", "name": "4,5-Dihydro-6-methyl-2-phenylpyridazin-3(2H)-one", "log S (log10 mol/L)": "-1.55"}
{"smiles": "O=S(=O)([O-])c1cc(Nc2nc(Nc3ccccc3)nc(N(CCO)CCO)n2)ccc1/C=C/c1ccc(Nc2nc(Nc3ccccc3)nc(N(CCO)CCO)n2)cc1S(=O)(=O)[O-].[Na+].[Na+]", "name": "C.I. Fluorescent Brightener 28, disodium salt", "log S (log10 mol/L)": "-1.284"}
{"smiles": "O=C1OC(=O)C2CC=CCC12", "stereo": "stereo unspecified", "name": "Tetrahydrophthalic anhydride", "log S (log10 mol/L)": "-1.182"}
{"smiles": "Sc1cnc2cncnc2n1", "log S (log10 mol/L)": "-2.71"}
{"smiles": "CCCC(N)=O", "name": "Butanamide", "log S (log10 mol/L)": "0.272"}
{"smiles": "C/C(Cl)=C/C(=O)O", "name": "(2Z)-3-Chloro-2-butenoic acid", "log S (log10 mol/L)": "-0.704"}
{"smiles": "Cc1cc(N(CCO)CCO)ccc1N=Nc1ccccc1", "name": "2,2'-((3-Methyl-4-(phenylazo)phenyl)imino)bisethanol", "log S (log10 mol/L)": "-4.126"}
{"smiles": "O=C1CC(=O)NC=N1", "name": "4,6(1H,5H)-PYRIMIDINEDIONE", "log S (log10 mol/L)": "-1.652"}
{"smiles": "CCCCOCCOCCOCCOC(=O)CCCC(=O)OCCOCCOCCOCCCC", "name": "Bis(2-(2-(2-butoxyethoxy)ethoxy)ethyl) hydrogen glutarate", "log S (log10 mol/L)": "-6.007"}
{"smiles": "N#CCC(=O)N/N=C/C=C/c1ccc([N+](=O)[O-])o1", "log S (log10 mol/L)": "-3.749"}
{"smiles": "COC(=O)c1sccc1N", "name": "2-Thiophenecarboxylic acid, 3-amino-, methyl ester", "log S (log10 mol/L)": "-1.895"}
{"smiles": "CCc1nc(N)c(C)c(CC)n1", "name": "2,6-diethyl-5-methylpyrimidin-4-amine", "log S (log10 mol/L)": "-2.355"}
{"smiles": "CC(=O)C(N=Nc1cc(Cl)c(-c2cc(Cl)c(N=NC(C(C)=O)C(=O)Nc3ccc(C)cc3C)cc2Cl)cc1Cl)C(=O)Nc1ccc(C)cc1C", "stereo": "stereo unspecified", "name": "Pigment Yellow 81", "log S (log10 mol/L)": "-8.463"}
{"smiles": "CC(=O)OC1=CC2=CC[C@@H]3[C@H](CC[C@@]4(C)[C@H]3CCC43OCC(C)(C)CO3)[C@@]2(C)CC1", "log S (log10 mol/L)": "-6.317"}

Repeated from above, the 3 entries with the highest log S:

{"smiles": "CCCC(N)=O", "name": "Butanamide", "log S (log10 mol/L)": "0.272"}
{"smiles": "CC1=CCC(=O)O1", "name": "alpha-Angelica lactone", "log S (log10 mol/L)": "-0.293"}
{"smiles": "C/C(Cl)=C/C(=O)O", "name": "(2Z)-3-Chloro-2-butenoic acid", "log S (log10 mol/L)": "-0.704"}